We go through 1 molecule from US11117865B2, “Inhibitors of bromodomain-containing protein 4 (BRD4)” (Board of Regents, The University Of Texas System, priority 2016, dated 2021).

For this experiment, the target named is BRDT (BD1) (Homo sapiens (Human), UniProt Q58F21). The experiment can be described thus: Bromodomain binding affinity.

On to `COc1cc(OC)c2c(=O)cc(-c3cc(C)c(OC[C@H](O)CN4CCN(C)CC4)c(C)c3)oc2c1` [ZL0516, (R)-2-(4-(2-hydroxy-3-(4-methylpiperazin-1-yl)propoxy)-3,5-dimethylphenyl)-5,7-dimethoxy-4H-chromen-4-one], for which the IC50 (as a rule, the midpoint of a concentration-inhibition curve) came out at 3.59 µM.
